Among the data in PubChem BioAssay (NCI) are GI50 and TGI values, retold here.

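The compound was tested at five concentrations on cells cultured in 96-well plates, with a 48-hour exposure period. At the GI50, growth is halved. Definition used: TGI = concentration required for complete inhibition of growth.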

The assay relates to MDA-MB-468 breast. In words: DTP human tumour cell line panel, 48 h.

As a reminder, the GI50 is the concentration at which growth is held to half of that of the control. In general, TGI refers to the concentration giving total growth inhibition. Low values mean greater sensitivity of the cells, high ones lower sensitivity of the cells.

`NCCc1ccc(N(CCCl)CCCl)cc1`: the GI50 was 1.27 µM and the TGI is 6.08 µM.
